Earlier results as cited in PMC5647227 (ACS chemical neuroscience, 2017).

Amino acid sequences for entries named in this document (tags omitted).
UniProt P33533, whole entry: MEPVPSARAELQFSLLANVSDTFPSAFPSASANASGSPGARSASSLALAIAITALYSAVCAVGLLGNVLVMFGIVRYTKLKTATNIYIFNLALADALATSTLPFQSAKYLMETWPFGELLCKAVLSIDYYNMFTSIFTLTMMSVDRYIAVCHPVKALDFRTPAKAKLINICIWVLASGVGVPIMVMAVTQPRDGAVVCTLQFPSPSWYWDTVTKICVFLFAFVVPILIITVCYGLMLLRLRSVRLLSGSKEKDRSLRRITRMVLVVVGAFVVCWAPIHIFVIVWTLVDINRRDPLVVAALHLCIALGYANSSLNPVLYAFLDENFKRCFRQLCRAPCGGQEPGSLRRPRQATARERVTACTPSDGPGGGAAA
UniProt P32300, whole entry: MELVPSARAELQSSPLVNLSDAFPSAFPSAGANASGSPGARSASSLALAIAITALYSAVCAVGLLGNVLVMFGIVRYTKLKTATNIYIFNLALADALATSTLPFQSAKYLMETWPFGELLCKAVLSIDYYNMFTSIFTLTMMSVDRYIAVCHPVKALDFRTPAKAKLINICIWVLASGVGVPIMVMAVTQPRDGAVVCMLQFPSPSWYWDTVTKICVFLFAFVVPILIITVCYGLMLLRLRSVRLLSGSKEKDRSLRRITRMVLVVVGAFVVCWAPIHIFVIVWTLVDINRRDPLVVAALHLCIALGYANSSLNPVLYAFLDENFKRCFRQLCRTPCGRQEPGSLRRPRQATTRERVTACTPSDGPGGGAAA

How the values were obtained:
DOP receptor [1] = biological target: DOP receptor (Rattus norvegicus, UniProt P33533); conditions: read-out: DOP Ki; [3H]DSLET, rat brain membranes; ref Ballet et al.[1]; cited from earlier work
DOP receptor [2] = biological target: DOP receptor (Mus musculus, UniProt P32300); conditions: read-out: MVD IC50; DOP receptor-representative assay; ref Ballet et al.[1]; cited from earlier work

Substance | Ki (DOP receptor [1]) [nM] | IC50 (DOP receptor [2]) [nM]
H-Dmt-D-Arg-Aba-Gly-NH2 [Compound 1] | 0.6 | 0.42
H-Dmt-D-Arg-Aba-Gly-NMe-3′,5′-(CF3)2-Bn [Compound 3] | 10.4 | 43.3
